# Test results published in publication PMC11477717, “Synthesis of Carborane–Thiazole Conjugates as Tyrosinase and 11β-Hydroxysteroid Dehydrogenase Inhibitors: Antiproliferative Activity and Molecular Docking Studies” (Molecules, 2024).
# Sequences of proteins named here, by UniProt entry; tags and fusion partners are left off. A change or cut given only in a name is not applied to a line headed by its entry.
# UniProt P28845: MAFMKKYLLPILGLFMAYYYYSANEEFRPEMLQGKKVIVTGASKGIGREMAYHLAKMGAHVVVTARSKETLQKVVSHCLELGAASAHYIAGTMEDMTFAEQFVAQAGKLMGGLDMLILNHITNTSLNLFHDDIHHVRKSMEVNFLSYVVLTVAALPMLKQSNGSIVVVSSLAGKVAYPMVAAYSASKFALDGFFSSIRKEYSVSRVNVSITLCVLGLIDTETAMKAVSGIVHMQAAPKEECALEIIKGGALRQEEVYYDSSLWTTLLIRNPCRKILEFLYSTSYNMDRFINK
# Biological target: T1, 11β-HSD1 (Homo sapiens, UniProt P28845)
# T1 construct: 10 µL of a microsome (1.13 µg/mL 11β-HSD1) solution in PBS; tissue XenoTech Lot No. 1410013; host or cells: pooled human liver microsomes
# Assay: Inhibition of 11β-HSD1 assay (cortisone to cortisol, microsomes, cortisol ELISA)
# Type: biochemical
# Details: 5 inhibitor concentrations, three independent determinations; read-out: IC50 ± SD 11β-HSD1
# Experimental: 18-beta-Glycyrrhetinic acid was obtained from Acros Organic; phosphate buffer powder, cortisone, NADPH tetrasodium salt, and NAD Cofactor were obtained from Sigma-Aldrich; dimethylsulfoxide was obtained from POCh Poland; and carbenoxolone (sodium salt) was obtained from Cayman Chemical Company, Ann Arbor, Michigan, USA. Pooled human liver microsomes, mixed gender, 1 mL, 20 mg/mL, Lot No. 1410013, were obtained from XenoTech. Cortisol Elisa Ref DKO001, Lot No. 5148A was obtained from […]. […] L160706125, was obtained from Cloud-Clone Corp. PBS, Lot No. H161008, was obtained from Pan Biotech. Human kidney microsomes, mixed gender, 0.5 mL, 10 mg/mL, Lot No. 1710160, were obtained from XenoTech. […] L191113457, was obtained from Cloud-Clone Corp. […] The microplates were incubated on an orbital shaker for 150 min at 37 °C. […] The quantity of cortisol formed from cortisone was determined using a cortisol ELISA kit, […].
structure (smiles),measurement,value
"CC1(C)[C@@H](OC(=O)CCC(=O)O)CC[C@]2(C)[C@H]3C(=O)C=C4[C@@H]5C[C@@](C)(C(=O)O)CC[C@]5(C)CC[C@@]4(C)[C@]3(C)CC[C@@H]12 [Carbenoxolone, carbenoxolone, reference compound]",IC50,< 0.5 µM
